Source: patent US20200181277A1 (Genmab, published 2020)

Sequences of proteins named here, by UniProt entry; tags and fusion partners are left off. Residues count along the entry.
UniProt P02745, 23-245 limits assumed, chain 1 of 3: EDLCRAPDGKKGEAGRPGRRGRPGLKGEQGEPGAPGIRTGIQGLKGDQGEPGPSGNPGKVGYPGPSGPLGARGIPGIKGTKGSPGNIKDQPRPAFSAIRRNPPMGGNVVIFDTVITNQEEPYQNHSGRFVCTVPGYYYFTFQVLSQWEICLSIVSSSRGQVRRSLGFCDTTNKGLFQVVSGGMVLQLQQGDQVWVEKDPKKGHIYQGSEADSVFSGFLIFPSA
purified human C1q, UniProt P02746, 28-253 limits assumed, chain 2 of 3: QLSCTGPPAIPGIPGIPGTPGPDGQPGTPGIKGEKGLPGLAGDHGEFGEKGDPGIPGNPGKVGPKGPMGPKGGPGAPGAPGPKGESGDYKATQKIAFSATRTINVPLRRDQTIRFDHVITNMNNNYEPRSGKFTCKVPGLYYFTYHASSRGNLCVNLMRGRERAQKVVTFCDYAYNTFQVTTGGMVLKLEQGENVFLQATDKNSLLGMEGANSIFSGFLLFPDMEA
purified human C1q, UniProt P02747, 29-245 limits assumed, chain 3 of 3: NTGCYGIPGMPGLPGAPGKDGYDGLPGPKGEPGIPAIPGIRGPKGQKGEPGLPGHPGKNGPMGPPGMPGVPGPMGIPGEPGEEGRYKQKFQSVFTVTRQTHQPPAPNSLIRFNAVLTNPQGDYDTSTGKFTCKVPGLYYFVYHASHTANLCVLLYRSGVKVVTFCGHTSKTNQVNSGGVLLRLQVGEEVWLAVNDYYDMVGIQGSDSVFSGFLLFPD

How the values were obtained:
purified human C1q [1] = target: T1, purified human C1q (human, UniProt P02745 23-245; P02746 28-253; P02747 29-245); test: cell-based or functional assay
purified human C1q [2] = target: T1, purified human C1q; test: C1q binding ELISA: plate coated with 1 µg/mL antibody, purified C1q titrated; SD 12.2, n 3

EC50 (purified human C1q [2]): 15.2 µg/mL
B1: IgG1-CONA-C49W (antibody)
heavy: not shown
light: EIVLTQSPGTLSLSPGERATLSCRASQGISRSYLAWYQQKPGQAPSLLIYGASSRATGIPDRFSGSGSGTDFTLTISRLEPEDFAVYYCQQFGSSPWTFGQGTKVEIKRTVAAPSVFIFPPSDEQLKSGTASVVCLLNNFYPREAKVQWKVDNALQSGNSQESVTEQDSKDSTYSLSSTLTLSKADYEKHKVYACEVTHQGLSSPVTKSFNRGEC
C1q EC90 (µg/mL), viability assay on WIL2-S SF cells (purified human C1q [1]): > 2.5 µg/mL
